Test results: patent US7977370B2, “(Hetero)aryl cyclohexane derivatives” (dated 2011)

The chains behind the UniProt entries cited, without tags or fusion partners.
UniProt P35372, whole entry: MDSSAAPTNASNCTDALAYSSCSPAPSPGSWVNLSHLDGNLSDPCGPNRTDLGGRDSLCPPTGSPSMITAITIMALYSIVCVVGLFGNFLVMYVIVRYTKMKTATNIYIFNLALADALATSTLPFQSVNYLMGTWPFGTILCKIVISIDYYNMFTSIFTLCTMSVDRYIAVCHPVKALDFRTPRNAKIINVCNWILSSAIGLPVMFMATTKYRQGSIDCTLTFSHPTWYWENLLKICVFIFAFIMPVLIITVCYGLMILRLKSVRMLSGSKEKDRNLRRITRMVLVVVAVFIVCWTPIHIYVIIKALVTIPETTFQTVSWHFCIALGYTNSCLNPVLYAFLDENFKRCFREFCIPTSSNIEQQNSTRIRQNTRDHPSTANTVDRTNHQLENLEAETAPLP
UniProt P41146, whole entry: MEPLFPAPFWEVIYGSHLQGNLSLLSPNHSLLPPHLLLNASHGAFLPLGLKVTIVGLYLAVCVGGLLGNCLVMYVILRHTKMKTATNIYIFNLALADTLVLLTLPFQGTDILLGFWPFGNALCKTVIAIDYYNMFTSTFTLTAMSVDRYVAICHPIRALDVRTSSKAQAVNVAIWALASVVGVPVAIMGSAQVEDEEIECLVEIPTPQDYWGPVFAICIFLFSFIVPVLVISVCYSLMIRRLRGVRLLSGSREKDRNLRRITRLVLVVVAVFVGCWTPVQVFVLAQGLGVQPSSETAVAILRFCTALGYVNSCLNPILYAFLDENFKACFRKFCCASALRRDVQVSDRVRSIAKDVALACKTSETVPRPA

Tests used:
human μ-opiate receptor = human μ-opiate receptor (Homo sapiens, UniProt P35372); conditions: for Ki: read-out: Ki (μ) Mean, Table 1; for % Inhibition (μ) [1 μM]: test concentration 1 μM
ORL 1-receptor = ORL 1-receptor (Homo sapiens, UniProt P41146); test: ORL 1 receptor binding assay with 3H-nociceptin/orphanin FQ, membranes of recombinant CHO-ORL 1 cells; conditions: for Ki: read-out: Ki (ORL1) Mean, Table 1; for % Inhibition (ORL1) [1 μM]: test concentration 1 μM

`CCCCC1(N(C)C)CCC(c2[nH]c3ccccc3c2CCO)(c2[nH]c3ccccc3c2CCO)CC1` was tested, and the Ki (human μ-opiate receptor) was 0.5 nM, the “% Inhibition (μ) [1 μM]” value (human μ-opiate receptor) was 96% and the Ki (ORL 1-receptor) was 1 nM. The “% Inhibition (ORL1) [1 μM]” value (ORL 1-receptor) was 98%.
In the case of `CCCCC1(N(C)C)CCC(c2[nH]c3ccccc3c2CC(=O)OC)(c2[nH]c3ccccc3c2CC(=O)OC)CC1`, the Ki (human μ-opiate receptor) is reported as 0.9 nM, the “% Inhibition (μ) [1 μM]” value (human μ-opiate receptor) is reported as 103% and the Ki (ORL 1-receptor) is reported as 27 nM. The “% Inhibition (ORL1) [1 μM]” value (ORL 1-receptor) was 96%.
